Measured values reported in ChEMBL document CHEMBL2146442, “High-affinity and selective dopamine D₃ receptor full agonists” (Bioorg Med Chem Lett, 2012).

How the values were obtained:
[1] = Selectivity ratio of dopamine D2 receptor to dopamine D3 receptor
[2] = Selectivity ratio of dopamine D1 like receptor to dopamine D3 receptor

With `Cc1ncoc1-c1nnc(SCCCN2CC3CC3(c3ccc(C(F)(F)F)cc3F)C2)n1C` (configuration not stated) the Selectivity ratio [1] was 100 and the Selectivity ratio [2] was > 1000.
